{"source": "patent US7803786B2", "about": "“Pharmaceutical co-crystal compositions and related methods of use” (Transform Pharmaceuticals, Inc., priority 2004, dated 2010)", "settings": "multiple experiments including dry grinding and wet grinding with several different solvents"}
{"substance": "Piracetam:Gentisic acid Co-crystal", "values": [{"measurement": "polymorphs of the co-crystal observed", "value": "only one polymorph"}]}
